Species: Rattus norvegicus
Test: Selectivity ratio of Ki for rat Sigma2 receptor to Ki for rat Sigma1 receptor

Structure (SMILES): CCCc1ccc2c(c1)sc(=O)n2CCN1CCCCCC1
- Ratio Ki: > 1000

— ChEMBL document CHEMBL2177078, “New positron emission tomography (PET) radioligand for imaging σ-1 receptors in living subjects” (J Med Chem, 2012)
